How the values were obtained:
bone marrow cells = experiment: Cytokine applied in place of the TLR agonist, formation of M-MDSCs and dendritic cells; assay type: cell-based; details: 3 method, day 6
Description: In order to identify association of TLR stimulation-induced cytokines with formation of M-MDSCs and inhibition of secondary differentiation as identified in Example 10, the 3 method in Example 1 was performed, except that TNF-α, IL-6, PGE2, IFN-α, or IFN-β is applied in place of the TLR agonist. On day 6 of culture, it was identified whether M-MDSCs and dendritic cells are formed.
Additionally, in order to identify whether formation of PDCA-1^+ M-MDSCs, which had been induced in a case of being treated with a TLR9 agonist, was caused by such a cytokine, distribution of CD11c^−CD11b^+Ly6G^−Ly6C^+PDCA-1^+ and CD11c^−CD11b^+Ly6G^−Ly6C^+PDCA-1^− was checked for the cells obtained on day 6 of culture as described above.

Ly6C^+ M-MDSCs = experiment: Ly6C+ M-MDSCs treated with GM-CSF, proportions of CD11c+ cells; assay type: cell-based
Description: The 3 method in Example 1 was performed, except that a TLR2 agonist, a TLR9 agonist, or IFN-β is applied, and then only Ly6C^+ M-MDSCs are collected on day 6 of culture. Then, GM-CSF was applied in the same manner as in Example 8 and culture was performed for 3 days. Subsequently, proportions of CD11c^+ cells were checked for the respective treatments.
Additionally, a TLR2 agonist was applied using the 3 method in Example 1, with IFN-β being further applied in an amount of 5 ng/ml or 25 ng/ml. Then, on day 6 of culture, only Ly6C^+ M-MDSCs were collected. Subsequently, GM-CSF was applied in the same manner as in Example 8 and culture was performed for 3 days. Then, proportions of CD11c^+ cells were checked for the respective treatments.

B1: IFN-β: type I IFN (protein, UniProt P01574 22-187, looked up)
Interferon beta: MSYNLLGFLQRSSNFQCQKLLWQLNGRLEYCLKDRMNFDIPEEIKQLQQFQKEDAALTIYEMLQNIFAIFRQDSSSTGWNETIVENLLANVYHQINHLKTVLEEKLEKEDFTRGKLMSSLHLKRYYGRILHYLKAKEYSHCAWTIVRVEILRNFYFINRLTGYLRN
- M-MDSCs are formed and differentiation into dendritic cells is inhibited (bone marrow cells): in a concentration-dependent manner
- differentiation into dendritic cells (proportions of CD11c^+ cells) (Ly6C^+ M-MDSCs; IFN-β 5 ng/ml or 25 ng/ml in combination with the TLR2 agonist, GM-CSF for 3 days): increased in a concentration-dependent manner
- differentiation into dendritic cells (proportions of CD11c^+ cells) (Ly6C^+ M-MDSCs; Ly6C^+ M-MDSCs of day 6, GM-CSF for 3 days): induced similarly to a case of being treated with a TLR9 agonist

Source: patent US11806364B2, “Method for producing myeloid-derived suppressor cells, myeloid-derived suppressor cells produced thereby, and methods thereof” (Industry-Academic Cooperation Foundation, Yonsei University, priority 2017, dated 2023)
